Molecular target: T1, CD206 (Mus musculus, UniProt Q61830)
T1 construct: unobstructed access to the CD206 receptors expressed by these cells; from tissue; host or cells: Live Balb/c mice: liver Kupffer cells, large-intestine macrophages, and tumor-associated macrophages in CT26 syngeneic tumors
T1 sequence (Q61830 20-1456): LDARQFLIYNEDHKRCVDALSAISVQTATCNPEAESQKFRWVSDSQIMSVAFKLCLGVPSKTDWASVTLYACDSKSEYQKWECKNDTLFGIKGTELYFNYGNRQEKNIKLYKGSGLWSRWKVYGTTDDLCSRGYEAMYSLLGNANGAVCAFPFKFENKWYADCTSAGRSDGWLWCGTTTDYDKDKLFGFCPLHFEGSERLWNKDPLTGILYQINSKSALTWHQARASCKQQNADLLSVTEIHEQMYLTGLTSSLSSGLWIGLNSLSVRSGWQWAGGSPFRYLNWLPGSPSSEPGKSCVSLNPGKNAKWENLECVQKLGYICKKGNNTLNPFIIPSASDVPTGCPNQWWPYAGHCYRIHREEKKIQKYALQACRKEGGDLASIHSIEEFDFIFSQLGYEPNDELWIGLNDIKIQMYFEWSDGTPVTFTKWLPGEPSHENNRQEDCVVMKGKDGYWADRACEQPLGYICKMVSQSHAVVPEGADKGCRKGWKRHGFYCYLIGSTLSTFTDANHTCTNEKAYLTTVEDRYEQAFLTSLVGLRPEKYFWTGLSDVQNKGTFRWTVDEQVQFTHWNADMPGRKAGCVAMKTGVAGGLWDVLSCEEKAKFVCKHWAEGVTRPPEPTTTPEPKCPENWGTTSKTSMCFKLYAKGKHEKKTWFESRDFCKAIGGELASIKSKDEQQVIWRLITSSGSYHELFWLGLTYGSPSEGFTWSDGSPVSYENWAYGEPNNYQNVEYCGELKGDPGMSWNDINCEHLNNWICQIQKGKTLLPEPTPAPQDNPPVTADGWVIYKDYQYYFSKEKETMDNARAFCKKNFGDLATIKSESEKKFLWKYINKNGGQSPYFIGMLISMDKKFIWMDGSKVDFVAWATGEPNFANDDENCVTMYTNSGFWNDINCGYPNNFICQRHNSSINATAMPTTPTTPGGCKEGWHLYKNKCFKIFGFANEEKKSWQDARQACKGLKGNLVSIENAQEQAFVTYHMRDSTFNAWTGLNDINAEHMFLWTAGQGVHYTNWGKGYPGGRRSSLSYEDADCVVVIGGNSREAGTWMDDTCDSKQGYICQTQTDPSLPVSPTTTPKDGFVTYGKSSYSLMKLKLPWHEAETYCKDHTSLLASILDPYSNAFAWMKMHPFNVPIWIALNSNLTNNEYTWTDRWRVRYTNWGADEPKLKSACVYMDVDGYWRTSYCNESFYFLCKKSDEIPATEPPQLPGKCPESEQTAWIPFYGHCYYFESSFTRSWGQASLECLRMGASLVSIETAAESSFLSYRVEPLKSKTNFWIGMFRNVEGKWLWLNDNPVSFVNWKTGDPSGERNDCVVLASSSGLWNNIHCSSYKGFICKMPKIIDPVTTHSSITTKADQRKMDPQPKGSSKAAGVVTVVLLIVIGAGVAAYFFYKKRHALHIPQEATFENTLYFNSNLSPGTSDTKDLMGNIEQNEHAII
Experiment: Organ and tumor localization (PET/CT or SPECT/CT) of radiolabeled mannosylated dextrans in tumor-bearing mice
Format: in vivo
Details: IV injection, Balb/c mice with CT26 syngeneic tumors, imaged approximately 1 hour after injection; comparison between the two constructs
Experimental: A mannosylated dextran construct carrying a DOTA chelator was synthesized according to the presently disclosed methods starting with a 3.5 kDa dextran backbone. […] This construct was labeled with [68]Ga. Tilmanocept (10 kDa dextran backbone carrying a DTPA chelator) was prepared by the method described in the 990 patent. […] Tilmanocept was labeled with [99m]Tc. These constructs were injected intravenously (IV) into Babl/c mice that had been implanted with CT27 syngeneic tumors. Syngeneic tumors contain numerous CD206+ tumor associated macrophages (TAMs). In addition, CD206+ macrophages occur normally in most tissues of the body including the large intestine. The liver contains large numbers of macrophage-like CD206+ Kupffer cells which are exposed directly to the blood flow providing the injected mannosylated dextrans with unobstructed access to the CD206 receptors expressed by these cells. In most tissues and in tumors, mannosylated dextrans must exit the blood flow and penetrate into the tissues or tumors to encounter CD206 expressing cells (mostly macrophages), Four animals were injected with each labeled construct. […] A: a non-crosslinked mannosylated dextran construct with a DOTA chelator built on 3.5 kDa dextran backbone and labeled with [68]Ga (calculated Mw=8.7 kDa). B: Tilmanocept (10 kDa dextran backbone) with a DTPA chelator labeled with [99m]Tc (measured Mw=37.5 kDa).

dextran 3-[(2-aminoethyl)thio]propyl 17-carboxy-10,13,16-tris(carboxymethyl)-8-oxo-4-thia-7,10,13,16-tetraazaheptadec-1-yl 3-[[2-[[1-imino-2-(D-mannopyranosylthio)ethyl]amino]ethyl]thio]propyl ether complexes [Tilmanocept]
% ID/g that had localized to the liver: nearly the same
